From PMC11272584 (Nature Metabolism, 2024)

How the values were obtained:
[1] = molecular target: T1, GIPR R164W (Homo sapiens, UniProt P48546, R164W); experiment: cAMP accumulation; assay type: cell-based
T1 construct: host or cells: HEK293

[2] = molecular target: T2, GIPR (Homo sapiens, UniProt P48546); experiment: Homologous radioligand competition binding, parental HEK293A cells; conditions: GIPR compared with GLP-1R; N = 3
T2 construct: host or cells: parental HEK293A cells and β-arrestin 1/2 KO HEK293A cells, transient calcium phosphate transfection

[3] = molecular target: T3, GIPR L13F (Homo sapiens, UniProt P48546); conditions: GIPR L13F (ECD), mean, n = 5, duplicate
T3 sequence (P48546 22-466): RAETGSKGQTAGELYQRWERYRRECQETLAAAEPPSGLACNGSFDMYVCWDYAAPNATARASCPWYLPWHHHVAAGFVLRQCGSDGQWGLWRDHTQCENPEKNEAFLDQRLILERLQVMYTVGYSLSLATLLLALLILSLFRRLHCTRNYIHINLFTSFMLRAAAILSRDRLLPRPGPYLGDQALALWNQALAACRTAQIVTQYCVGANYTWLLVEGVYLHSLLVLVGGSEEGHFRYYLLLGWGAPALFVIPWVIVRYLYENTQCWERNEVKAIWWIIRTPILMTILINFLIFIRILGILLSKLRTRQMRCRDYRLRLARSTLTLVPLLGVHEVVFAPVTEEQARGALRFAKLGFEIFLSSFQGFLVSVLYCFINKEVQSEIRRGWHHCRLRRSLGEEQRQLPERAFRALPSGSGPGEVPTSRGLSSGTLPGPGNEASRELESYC

[4] = molecular target: T4, GIPR Y73H (Homo sapiens, UniProt P48546, Y73H); conditions: GIPR Y73H (ECD), mean, n = 5, duplicate
T4 sequence (P48546 22-466 Y73H): T3 sequence (P48546 22-466) with Y52H

[5] = molecular target: T5, GIPR E418K (Homo sapiens, UniProt P48546, E418K); conditions: GIPR E418K (ICD), mean, n = 3, duplicate
T5 sequence (P48546 22-466 E418K): T3 sequence (P48546 22-466) with E397K

[6] = molecular target: T6, GIPR E463Q (Homo sapiens, UniProt P48546, E463Q); conditions: GIPR E463Q (ICD), mean, n = 3, duplicate
T6 sequence (P48546 22-466 E463Q): T3 sequence (P48546 22-466) with E442Q

[7] = molecular target: WT GIPR (Homo sapiens, UniProt P48546); conditions: HEK293A, 1 µM GIP minus vehicle, n = 8, P = 0.00019

glucose-dependent insulinotropic polypeptide [GIP]
cAMP (Emax) ([1]; HEK293, GIP(1–42) 1 pM–100 nM, 30 min 37 °C, mean of n = 4): 9 % of WT GIPR activity | logEC50 (cAMP) ([1]; HEK293, Hill slope 1.0, mean of n = 4): -8.4 | Receptor surface expression (Bmax) [2]: to the same extent | logEC50 (Arrestin) ([3]; Hill slope 1.0): -8.7 | Arrestin (Emax) ([3]; normalized to WT GIPR): 68 | logEC50 (Arrestin) ([4]; Hill slope 1.0): -9.1 | Arrestin (Emax) ([4]; normalized to WT GIPR): 132 | logEC50 (Arrestin) ([5]; Hill slope 1.0): -9.2 | Arrestin (Emax) ([5]; normalized to WT GIPR): 91 | logEC50 (Arrestin) ([6]; Hill slope 1.0): -9.1 | Arrestin (Emax) ([6]; normalized to WT GIPR): 49 | Mean of ΔBRET [7]: 0.1015

Positions count from the first letter of the chain named.
